Measured melting point values of organic chemicals

Data: OPERA 2.9 data sets, kmansouri/OPERA on GitHub.

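OPERA's authors assembled the values from existing databases and did not measure them anew. One number stands for a compound and property, with no spread given. Method and conditions are not stated for these values. A value may pool stereoisomers or salt forms, and the file does not say which form was measured. Some entries may be limits or estimates that an upstream database listed as plain numbers.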

Melting points are in °C.
Cells with "n/a" have no entry in this list.
The databases behind each value are named after "via".

SMILES	name	melting point (°C)	via
O=C(O)c1ccccc1OCc1ccc(Cl)cc1	2-((4-Chlorobenzyl)oxy)benzoic acid	86	OCHEM
COC(C=CC(OC)OC)OC	1,1,4,4-Tetramethoxy-2-butene	-0.075	eChemPortal
S=c1nc(-c2ccccc2)c(-c2ccccc2)n[nH]1	5,6-Diphenyl-1,2,4-triazine-3-thiol	223	OCHEM
CCCCCCCCCCCCCCCCCC(=O)OCCCCCCCCCCCCCC	Myristyl stearate	45.9	eChemPortal
CC(C)C(C)(C)[C@@H]1CCC(=O)[C@H](C)C1 (relative stereo)	cis-2-Methyl-4-(1,1,2-trimethylpropyl)cyclohexanone	35.75	eChemPortal
Nc1ncc(Cc2ccccc2F)s1	5-(2-fluorobenzyl)-1,3-thiazol-2-amine	98	OCHEM
Nc1ccc(OCCC(F)(F)C(F)(F)C(F)(F)C(F)(F)C(F)(F)C(F)(F)F)cc1	4-[(3,3,4,4,5,5,6,6,7,7,8,8,8-Tridecafluorooctyl)oxy]aniline	47.5	ChemicalBook
CC1(C)O[C@@](C)(C(=O)O)CC[C@H]1C(=O)O	(2R,5R)-2,6,6-trimethyloxane-2,5-dicarboxylic acid	208	OCHEM
CC(=O)N1CCc2ccccc2C1CC(=O)O (stereo not given)	(2-Acetyl-1,2,3,4-tetrahydroisoquinolin-1-yl)acetic acid	165	OCHEM
C=CCCCCCCCCC(=O)OCCCCCCC	Heptyl 10-undecenoate	-15	eChemPortal
Nc1nc(NC2CC2)c2ncn([C@H]3C=C[C@@H](CO)C3)c2n1.O=C(O)CCCC(=O)O	n/a	201.8	eChemPortal
CC(C)Cc1nnc(N)s1	5-Isobutyl-[1,3,4]thiadiazol-2-ylamine	240	OCHEM
CC(C)(CCl)c1ccccc1	Neophyl chloride	36	eChemPortal
O=C(O)C1CC(=O)N(c2ccc(Br)cc2)C1 (stereo not given)	1-(4-bromophenyl)-5-oxopyrrolidine-3-carboxylic acid	174	OCHEM
COc1ccc(C(=O)Nc2ccccc2)cc1N=Nc1c(O)c(C(N)=O)cc2ccccc12	n/a	331.2	eChemPortal
O=C1C=CC(=O)N1c1ccc2ccccc2c1	1-(Naphthalen-2-yl)-1H-pyrrole-2,5-dione	122	OCHEM
COc1ccc(/C=N\O)cc1	[C(Z)]-4-Methoxybenzaldehyde oxime	65	OCHEM
O=C(O)c1ccc2c(c1)-c1ccccc1C2	9H-fluorene-3-carboxylic Acid	265	OCHEM
Nc1cccc(S(=O)(=O)CCO)c1	Ethanol, 2-[(3-aminophenyl)sulfonyl]-	82.35	eChemPortal
O=C(O)c1cnn(-c2ccccc2)n1	2-phenyl-2H-1,2,3-triazole-4-carboxylic acid	184	OCHEM
Nc1cccc(-c2csc(N)n2)c1	4-(3-Amino-phenyl)-thiazol-2-ylamine	175	OCHEM
O=C(O)c1cccc(N2C(=O)C=CC2=O)c1	3-(2,5-Dihydro-2,5-dioxo(1H)-pyrrole-1-yl)benzoic acid	232	OCHEM
CC1CCc2[nH]c3ccc(C(=O)O)cc3c2C1 (stereo not given)	6-Methyl-6,7,8,9-tetrahydro-5H-carbazole-3-carboxylic acid	219	OCHEM
O=S(=O)(c1ccccc1)N(SC(Cl)(Cl)Cl)c1ccccc1	Benzenesulfonamide, N-phenyl-N-[(trichloromethyl)thio]-	110	eChemPortal
COc1cc(C=O)ccc1OCC#N	(4-Formyl-2-methoxyphenoxy)acetonitrile	76	OCHEM
C=C(C)C(=O)OCCCCCCCCCCCCOC(=O)C(=C)C	1,12-Dodecanediyl bismethacrylate	5.5	eChemPortal
CCCCCCCC[Si](OC)(OC)OC	Trimethoxycaprylylsilane	-66	eChemPortal
CC(C)(C)c1cc(CCC(=O)NNC(=O)CCc2cc(C(C)(C)C)c(O)c(C(C)(C)C)c2)cc(C(C)(C)C)c1O	n/a	226.5	eChemPortal
CCCCCCOc1ccc(C(=O)O)cc1OC	4-Hexyloxy-3-methoxy-benzoic acid	123	OCHEM
COc1ccc(C(=O)NCC(=O)O)cc1OC	(3,4-Dimethoxy-benzoylamino)-acetic acid	199	OCHEM
NNc1cc(N2CCOCC2)ncn1	4-(6-Hydrazinylpyrimidin-4-yl)morpholine	166.5	eChemPortal
COCCCn1c(=S)[nH]c2ccccc2c1=O	n/a	181	OCHEM
O=C(O)CN=C(O)c1cccc([N+](=O)[O-])c1	N-[Hydroxy(3-nitrophenyl)methylidene]glycine	91	OCHEM
O=C(O)C12CC3CC(C1)CC(c1ccccc1)(C3)C2	3-Phenyladamantane-1-carboxylic acid	162	OCHEM
CCOc1ccc(S(=O)(=O)Cl)cc1	4-ethoxybenzenesulfonyl chloride	42.5	OCHEM

The 2 lowest values of melting point among the entries above:

| SMILES | name | melting point (°C) | via |
|---|---|---|---|
| CCCCCCCC[Si](OC)(OC)OC | Trimethoxycaprylylsilane | -66 | eChemPortal |
| C=CCCCCCCCCC(=O)OCCCCCCC | Heptyl 10-undecenoate | -15 | eChemPortal |